# Literature values, collected in US20070148100A1, “Nanoparticulate aripiprazole formulations” (priority 2005, published 2007).
# Conditions: in vivo
structure (smiles),measurement,value
"O=C1CCc2ccc(OCCCCN3CCN(c4cccc(Cl)c4Cl)CC3)cc2N1 [Aripiprazole, 7-[4-[4-(2,3-dichlorophenyl)-1-piperazinyl]butoxy]-3,4-dihydrocarbostyril]",time to achieve steady state plasma concentrations,about 14 days
